Laboratory results: PubChem BioAssay AID588475 (Sanford-Burnham Center for Chemical Genomics, 2011)
The list shows a part of the results, in another mix than the full data. The source made the active and inactive calls.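 The calls were made as follows: active = inhibition of the ligand-induced calcium signal above about 50% at the single tested concentration (limit read from the data); inactive = the rest.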

Test: antagonists of CRF-BP/CRF-R2 complex, primary screen, cell-based, HEK293, calcium dye fluorescence, uHTS (AID 588475)
Details: CRF-induced calcium fluorescence, at 11.8 µM, stronger effect = higher value

Compound	inhibition
Cc1ccc(NP(=O)(Oc2ccccc2F)Oc2ccccc2F)nc1	inactive: -18%
CN(C(=O)Cc1ccc(Cl)c(Cl)c1)[C@H]1CCCC[C@@H]1N1CCCC1	inactive: 4.3%
CCOP(=O)(Nc1ccccc1)OCC	inactive: 1.13%
Cc1cc(SC(NC(=O)c2ccc(F)cc2)C(Cl)(Cl)Cl)ncn1 (stereo not given)	inactive: -7.23%
CCCC1OP(N)(=O)OCC1CC (stereo not given)	inactive: -5.22%
O=C(O)c1ccccc1[As](=O)(O)O	inactive: 0.16%
CC(=O)Nc1ccc([As](=O)(O)O)cc1	inactive: 0.56%
CN(C)P(=O)(N(C)C)n1c(Nc2ccccc2)nnc1-c1ccccc1	inactive: -5.69%
O=P(Nc1nc2ccc(Cl)cc2s1)(c1ccccc1)c1ccccc1	inactive: 7.44%
CCN(N=Nc1nonc1N)c1nonc1N	inactive: 6.05%
Nc1cccc2ccc([As](=O)(O)O)cc12	inactive: -2.54%
Cc1ccc(OP(=O)(Nc2nccs2)Oc2ccc(C)cc2)cc1	inactive: 1.21%
COc1ccccc1OP(=O)(Nc1ccc(C)cn1)Oc1ccccc1OC	inactive: -12.2%
Clc1ccc(Cl)c(NC2=NCC(CBr)S2)c1 (stereo not given)	inactive: 17.2%
CN1CCCC(OC(=O)C(c2ccccc2)c2ccccc2)C1 (stereo not given)	inactive: 3.02%
NC(=O)c1cc([N+](=O)[O-])cc([N+](=O)[O-])c1N	inactive: 21.6%
Cc1ccc(N/C(=N/P(=O)(N2CCOCC2)N2CCOCC2)N2CCOCC2)cc1	inactive: -0.15%
CN(C(=O)Cc1ccc(Cl)c(Cl)c1)[C@H]1CCCC[C@H]1N1CCCC1	inactive: -9.51%
CC(C)CC(=O)NC(Sc1ccc(Cl)cc1)C(Cl)(Cl)Cl (stereo not given)	inactive: 15.3%
Nc1cc(N)c2nonc2c1[N+](=O)[O-]	inactive: -7.87%
O=C(NC(Sc1ccncn1)C(Cl)(Cl)Cl)c1ccccc1 (stereo not given)	inactive: 6.51%
Oc1ccccc1CNc1ccccn1	inactive: -0.7%
O=[N+]([O-])c1cccc2n[nH]nc12	inactive: 27.4%
CC(=O)N1C2C3N(C(C)=O)C1C1N(C(C)=O)C(C(N1C(C)=O)N3C(C)=O)N2C(C)=O	inactive: -5.38%
CCc1nc2c(n1)c1c(non1O)c1c2no[n+]1[O-]	inactive: -17.4%

Compound	inhibition
O=[N+]([O-])c1cc([N+](=O)[O-])c(CCNc2ccccc2)c([N+](=O)[O-])c1	inactive: 4.76%
Cc1ccc(NP(=O)(Oc2ccccc2)Oc2ccccc2)nc1	inactive: -16.4%
COc1ccc(C2=NCC(CBr)S2)cc1 (stereo not given)	inactive: -2.64%
CN(C)C(=O)OCCc1n(C)cc[n+]1C	inactive: -4.3%
CC(C)=N/N=C(\N)N[N+](=O)[O-]	inactive: -2.61%
CC(C)c1nc(Nc2ccccc2)n(P(=O)(N(C)C)N(C)C)n1	inactive: -1.07%
c1cc(-c2nn[nH]n2)ccc1-c1nn[nH]n1	inactive: 19.5%
CC1CCN(C(=O)Oc2c(Cl)cc(Cl)c3cccnc23)CC1	inactive: -3.01%
C[N+]1=C2C=CC=CC=C2SC12C([N+](=O)[O-])=CC([N+](=O)[O-])=C[C-]2[N+](=O)[O-] (stereo not given)	inactive: -5.42%
Nc1ccc([As](=O)(O)c2ccc(N)cc2)cc1	inactive: 10.1%
CCN(/C(=N/P(=O)(N1CCOCC1)N1CCOCC1)N1CCOCC1)c1ccc(OC)cc1	inactive: 4.93%
O=C(Nc1cc([As](=O)(O)O)ccc1O)c1ccccc1	inactive: -18.6%
O=P1(N(CCCl)CCCl)OCCCS1 (stereo not given)	inactive: 6.91%
O=[N+]([O-])c1cccc(NC2=NCC(CBr)S2)c1 (stereo not given)	inactive: 43.9%
COC(=O)C1(C)COP(=O)(Nc2ccccc2)OC1 (stereo not given)	inactive: 41.6%
O=C(O)CNc1ccc([As](=O)(O)O)cc1	inactive: 9.59%
CC(C)(C)C(=O)NC(Sc1ccncn1)C(Cl)(Cl)Cl (stereo not given)	inactive: 20%
O=[N+]([O-])c1ncn(CCn2ncnc2[N+](=O)[O-])n1	inactive: -2.03%
C[C@H]1OP(=O)(Oc2ccccc2)[C@H](O)[C@H](O)[C@H]1N=[N+]=[N-] (stereo not given in full)	inactive: -4.35%
O=P(Nc1nc2ccccc2s1)(c1ccccc1)c1ccccc1	inactive: 2.15%
COc1ccc(N)c([N+](=O)[O-])c1[N+](=O)[O-]	inactive: 5.51%
O=P(Nc1ccccn1)(c1ccc(Br)cc1)c1ccc(Br)cc1	inactive: -27%
CN(C)C1(CNC(=O)c2ccc(Cl)c(S(N)(=O)=O)c2)CCCCC1	inactive: -10.6%
Nc1ccc([As](=O)(O)c2ccc([N+](=O)[O-])cc2)cc1	inactive: 15.5%
C(Cc1nn[nH]n1)Cc1nn[nH]n1	inactive: 20.5%

Compound	inhibition
O=C(OC1CN2CCC1CC2)c1cccc(Cl)c1 (stereo not given)	inactive: -6.85%
O=[N+]([O-])c1ccc(O)c(/C=N/Nc2ccc([N+](=O)[O-])cc2[N+](=O)[O-])c1	active: 52.8%
O=[N+]([O-])c1ncn(CCn2cnc([N+](=O)[O-])n2)n1	inactive: 5.94%
CC(=O)NC(SC(=S)N(C)C)C(Cl)(Cl)Cl (stereo not given)	inactive: -21.4%
O=[As](O)(c1ccccc1)c1ccc(O)cc1	inactive: 12.4%
c1nnnn1CCn1cnnn1	inactive: -12%
CC(C)C(=O)NC(Sc1ccccc1)C(Cl)(Cl)Cl (stereo not given)	inactive: -4.36%
O=P(Nc1nccs1)(c1ccccc1)c1ccccc1	inactive: -10.1%
CCc1cc(O)c([N+](=O)[O-])c(C)c1[N+](=O)[O-]	inactive: 18.5%
CC(C)(C)C(=O)NC(Sc1ccccc1)C(Cl)(Cl)Cl (stereo not given)	inactive: -2.99%
CCOc1ccc(C2=NCC(CBr)S2)cc1 (stereo not given)	inactive: 6.25%
O=P1(Nc2nc3ccc(Cl)cc3s2)COc2ccccc2O1 (stereo not given)	inactive: 8.38%
CC(=O)Nc1ccc(Oc2c([N+](=O)[O-])cc([N+](=O)[O-])cc2[N+](=O)[O-])cc1	inactive: 27.4%
CC(=O)Nc1ccc([As](=O)(O)O)c(O)c1	inactive: -1.14%
COC(=O)C1(C)COP(=O)(NCc2ccccc2)OC1 (stereo not given)	inactive: 31.1%
N#C/C(=C\c1ccc(N(CCBr)CCBr)cc1)C(N)=O	inactive: -5.47%
CC(=O)c1ccc(N2CC2c2ccncc2)cc1 (stereo not given)	inactive: 7.13%
C[C@@H]1C=CCP(=O)(Oc2ccccc2)O1 (stereo not given in full)	inactive: 14.1%
C[C@H]1OP(=O)(Oc2ccccc2)C[C@@H]2O[C@@H]21 (stereo not given in full)	inactive: -3%
Cc1ccccc1CN(C)C(=O)COC(=O)C(O)(c1ccccc1)c1ccccc1	inactive: -26.3%
O=P1(N(CCCl)CCCl)OCCC2CCCCN21 (stereo not given)	inactive: -18.6%
CCNC(=S)/N=C(\N)N[N+](=O)[O-]	inactive: 19.9%
O=C(NC1CCS(=O)(=O)C1)NP(=S)(Oc1ccccc1)Oc1ccccc1 (stereo not given)	inactive: 1.47%
Cc1ccc(NP(=O)(Oc2cccc(C)c2)Oc2cccc(C)c2)nc1	inactive: -3.79%
c1ccc(-c2nn[nH]n2)c(-c2nn[nH]n2)c1	inactive: -0.92%

Compound	inhibition
CN(C)C(=O)Oc1noc2ccccc12	inactive: -5.25%
O=c1c2cc([N+](=O)[O-])ccc2[nH]c2c([N+](=O)[O-])cc([N+](=O)[O-])cc12	active: 118%
Cc1ccccc1OP(=O)(Nc1ccccn1)Oc1ccccc1C	inactive: -33.2%
CC(NC(=O)COC(=O)C(O)(c1ccccc1)c1ccccc1)c1ccccc1 (stereo not given)	inactive: 16.5%
Cc1ccc(OP(=O)(Nc2ccccn2)Oc2ccc(C)cc2)cc1	inactive: -35.7%
CC(=O)NC(SC(=S)N(CC(C)C)CC(C)C)C(Cl)(Cl)Cl (stereo not given)	inactive: 11.5%
COC(=O)c1cc2c(s1)N=C(c1ccccc1)N(C)P2(=O)N1CCOCC1 (stereo not given)	inactive: -18.4%
CCC(=O)N1C2C3N(C(=O)CC)C1C1N(C(=O)CC)C(C(N1C(=O)CC)N3C(=O)CC)N2C(=O)CC	inactive: 7.12%
O=C(OC1CN2CCC1CC2)c1ccccc1 (stereo not given)	inactive: 0.71%
Nc1ccccc1[As](=O)(O)c1ccccc1	inactive: 2.57%
O=C(O)COc1ccc([As](=O)(O)O)cc1[N+](=O)[O-]	inactive: -16.3%
CS(=O)(=O)c1cc([N+](=O)[O-])c2no[n+]([O-])c2c1	inactive: -9.54%
O=P(Nc1nccs1)(c1ccccc1)c1nc2ccccc2s1 (stereo not given)	inactive: 5.94%
O=P(Nc1nccs1)(Oc1ccccc1)Oc1ccccc1	inactive: -10.3%
CCOP1(=S)c2c(C)nn(CCC#N)c2N=C(c2ccccc2F)N1C (stereo not given)	inactive: -5.57%
CN(C(=O)Cc1ccc(Cl)c(Cl)c1)[C@H]1CC[C@@]2(CCCO2)C[C@@H]1N1CCCC1	inactive: 4.8%
CN(C)C(=O)c1cc([N+](=O)[O-])cc2c1-c1c(cc([N+](=O)[O-])cc1[N+](=O)[O-])C2=O	inactive: 24.3%
O=[N+]([O-])c1ccc2c(c1)nnn2O	inactive: 0.62%
CN(C(=O)Cc1ccccc1)[C@@H]1CC[C@]2(CCCO2)C[C@H]1N1CCCC1	inactive: -64.2%
CCOP1(=S)c2c(C)nn(CCC#N)c2N=C(c2ccc(F)cc2)N1C (stereo not given)	inactive: 2.61%
N#CCCN(C(=O)COC(=O)C(O)(c1ccccc1)c1ccccc1)c1ccc(F)cc1	inactive: 4.24%
NC(=O)Nc1ccc([As](=O)(O)O)cc1	inactive: 3.82%
O=[As](O)(c1cccc(O)c1)c1cccc(O)c1	inactive: 5.63%
Cc1cccc(OCC(=O)OC2CN3CCC2CC3)c1 (stereo not given)	inactive: 8.88%
CS(=O)(=O)c1ccc(Cl)c(NC(=O)COC(=O)C(O)(c2ccccc2)c2ccccc2)c1	inactive: 23.3%
